How the values were obtained:
[1] = tested on: primary cultures of retinal pigment epithelium (RPE) of adult pigs; assay: In vitro assay of the photoprotective activity: phototoxicity induced by A2E and blue light, cell survival; format: cell-based, pig; conditions: 20 μM compound for 48 h, A2E 30 μM, blue light 470 nm 50 min, survival after 24 h; living cells vs control wells without A2E x100; A2E controls without molecule 39.7±3.7
Experimental: A cell model of phototoxicity induced by the association of a treatment by the A2E and of an illumination by blue light on primary cultures of RPE, wherein cell survival was measured, was used. This model uses primary cultures of retinal pigment epithelium of adult pigs.
This model makes it possible in particular to carry out the screening of molecules aimed at the discovery of new candidates for a treatment of the dry form of AMD. […]
The cell cultivated in 96-well plates were treated for 48 hours with the compounds to be tested (in a 5 mM solution in the DMSO) in such a way as to obtain final concentrations of 5 or 20 μM), of which the last 19 hours in the presence of A2E (final concentration 30 μM). […] Cell survival is measured after 24 hours.
Cell survival and death are detected 24 hours after the induction of the phototoxicity by colouration of the cells with Hoechst (a nuclear marker) and with ethidium (a marker of the nuclei of dead cells). Images of each well are acquired on a fluorescent microscope equipped with a motorised stage controlled by the Metamorph software, and cell survival is quantified by a dedicated quantification program. […]

RPE cells [2] = conditions: literature, in words; cited from earlier work
RPE cells [3] = conditions: literature, in words; cited from earlier work; remark: listed apart in the source

Question: Which results are given for peonidin?
Answer: Cell survival [1]: 60.4 ± 8.5%; effectiveness for cell survival of the RPE cells (RPE cells [2]): ineffectiveness; photoprotective effect on the RPE cells (RPE cells [3]): Contradicting results

Reference: patent publication US10513503B2, “Use of 3-deoxyanthocyanidins for treating occular diseases” (BIOPHYTIS, priority 2015, dated 2019)
